The values below come from US20240115500A1, “POLYMERIC MICELLE COMPLEXES OF MRNA OR ZWITTERIONIC AGENTS, AND FORMULATIONS AND USES THEREOF” (Aravasc Inc., priority 2020, published 2024).

This data set in a line: Agarose gel electrophoresis of protein + PBC formulations at defined w/w ratios (Example 2). Conditions: polymer:protein ratio 15:1; FIG. 2A-2D.

For the substance “Interleukin-2: interleukin protein tested for complexation with PBC”, the “complexation with the polymer (agarose gel)” value is “significantly complex”.
